# PubChem BioAssay AID1822 (The Scripps Research Institute Molecular Screening Center, 2009)
# Only a part is listed here, and it is no random draw. Some tests of the compounds listed are not included; inactive here does not mean inactive elsewhere. Activity calls are given as the source filed them.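 How the source made its calls: active means inhibition above the campaign mean inhibition over all tested compounds plus 3 SD (cut at about 28% in these data); inactive means the rest.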
# Tested on: M18 aspartyl aminopeptidase (Plasmodium falciparum 3D7)
# Test: inhibition of P. falciparum M18 aminopeptidase – biochemical, QFRET, recombinant enzyme, primary screen (AID 1822);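 further: 0% = plate median of test compound wells and 100% = 2 mM ZnCl2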
# Conditions: recombinant PfM18AAP, H-Glu-NHMec fluorogenic cleavage; at 7.35 µM; hits give high values
row,Structure (SMILES),inhibition
1,O=C(NCC1(N2CCCCC2)CCCCC1)c1cccc(Cl)c1,inactive: -4.19%
2,COc1ccc(Cl)cc1C(=O)NCC1(N(C)C)CCCCC1,inactive: -12.7%
3,COc1cccc(C(=O)NCC2(N3CCCCC3)CCCCC2)c1,inactive: 4.32%
4,COc1cc(C(=O)NCC2(N(C)C)CCCCC2)c([N+](=O)[O-])cc1OC,inactive: 25%
5,CN(C)C1(CNC(=O)c2ccc(Br)cc2)CCCCC1,inactive: 1.37%
6,CN(C)c1cccc(C(=O)NCC2(N(C)C)CCCCC2)c1,inactive: -2.22%
7,CC(C)Oc1ccc(C(=O)NCC2(N(C)C)CCCCC2)cc1,inactive: -18.3%
8,COc1ccc(Br)c(C(=O)NCC2(N3CCCCC3)CCCCC2)c1,inactive: -9.44%
9,O=C(OC1CN2CCC1CC2)C(CO)(c1ccccc1)c1ccccc1 (centres undefined),inactive: -1.2%
10,Cc1ccc(C(=O)NCC2(N3CCCCC3)CCCCC2)cc1,inactive: 4.69%
11,CC(C)N1C(=O)CC2(CCN(CCOC(=O)C(O)(c3ccccc3)c3ccccc3)CC2)C1=O,inactive: -8.58%
12,COc1cc(SC)ccc1C(=O)NCC1(N(C)C)CCCCC1,inactive: -8.13%
13,CCN(CC)CC(C)C(C)OC(=O)C(O)(c1ccccc1)c1ccccc1 (centres undefined),inactive: -3.21%
14,CN1[C@@H]2CC[C@H]1CC(OC(=O)C(O)(c1ccccc1)c1ccccc1)C2 (some centres undefined),inactive: -6.21%
15,O=C(NCC1(N2CCCCC2)CCCCC1)c1cc([N+](=O)[O-])ccc1Cl,inactive: -5.35%
16,O=C(NCC1(N2CCCCC2)CCCCC1)c1cccc(Br)c1,inactive: 2.65%
17,CCN1CCCC(OC(=O)C2(O)c3ccccc3C=Cc3ccccc32)C1 (centres undefined),inactive: -6.1%
18,Cc1cc(C(=O)NCC2(N3CCCCC3)CCCCC2)ccc1[N+](=O)[O-],inactive: -0.94%
19,COc1ccc(C(=O)NCC2(N(C)C)CCCCC2)cc1,inactive: -11.7%
20,O=C(NCC1(N2CCCCC2)CCCCC1)c1cc(F)c(F)cc1Cl,inactive: 4.12%
21,C=CCN1CCN(CCOC(=O)C(O)(c2ccccc2)c2ccccc2)CC1,inactive: -3.38%
22,CN(C)c1ccc(C(=O)NCC2(N(C)C)CCCCC2)cc1,inactive: 6.29%
23,CN(C)C1CCCC1OC(=O)C(O)(c1ccccc1)c1ccccc1 (centres undefined),inactive: 1.46%
24,Cc1ccccc1C(=O)NCC1(N2CCCCC2)CCCCC1,inactive: -5.79%
